Measured values as given in patent US9913905B2, “Liquid pharmaceutical formulations for injection comprising thiamine pyrophosphate 1-(3-aminopropyl)-2-methyl-1H-imidazole and uses thereof” (EAGLE BIOLOGICS, INC., priority 2013, dated 2018).

System: TYSABRI®
Assay: Viscosity of concentrated aqueous solutions of TYSABRI® (mVROC microfluidic viscometer)
Format: physicochemical
Details: TYSABRI® 206 mg/mL; organophosphate 0.25M

In the case of `Cc1ncc(C[n+]2csc(CCOP(=O)(O)OP(=O)(O)O)c2C)c(N)n1.[Cl-]` [TPP, thiamine pyrophosphate], the Viscosity is reported as 59.6 ± 1.6 cP.
